In patent US12319684B2 (Sanford Burnham Prebys Medical Discovery Institute, priority 2014, dated 2025):

Target: T1, human apelin receptor (APJ, AGTRL-1, APLNR) (Homo sapiens, UniProt P35414)
T1 construct: host or cells: Chinese hamster ovary cells
T1 sequence (P35414 1-380): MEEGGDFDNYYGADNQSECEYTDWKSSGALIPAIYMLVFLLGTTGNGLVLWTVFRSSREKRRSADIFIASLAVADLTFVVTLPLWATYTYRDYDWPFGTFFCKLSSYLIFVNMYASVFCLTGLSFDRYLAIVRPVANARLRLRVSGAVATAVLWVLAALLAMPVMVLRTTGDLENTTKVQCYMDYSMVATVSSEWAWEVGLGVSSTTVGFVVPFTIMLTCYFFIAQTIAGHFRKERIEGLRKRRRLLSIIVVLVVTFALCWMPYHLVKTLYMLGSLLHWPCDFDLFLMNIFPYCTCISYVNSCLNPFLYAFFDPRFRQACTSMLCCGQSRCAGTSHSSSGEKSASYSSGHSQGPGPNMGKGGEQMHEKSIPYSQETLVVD
Assay: APJ cAMP cell-based assay (forskolin-stimulated CHO cells, enzyme fragment complementation)
Procedure: The assays disclosed herein were performed using cell lines from DiscoveRx, Inc.
Biological activity was determined in a cell-based assay. This assay detects activation of the receptor by reporting on intracellular cyclic adenosine monophosphate (cAMP) level. Chinese hamster ovary cells engineered to express a stably integrated human apelin receptor (APJ, AGTRL-1, APLNR), were plated into the wells of a microtiter plate. Cells were stimulated with forskolin to increase intracellular cAMP. Immediately following, compounds were added at a range of final concentrations 0.0-100 μM, in DMSO (not to exceed a final DMSO concentration of >1% v/v), and allowed to incubate with the cells for 0.5 h. At the end of the incubation, cells were lysed to stop APJ signaling, and cAMP was quantified using a commercially available assay kit that applies enzyme fragment complementation technology and bioluminescence, in a competitive ELISA format.
Compound efficacy (% resp) is reported as a percentage of the maximal apelin-13 response at 1 nM (control).

COc1ccccc1-n1c(NCc2cc(=O)n3cc(C)ccc3n2)nnc1-c1cccs1 [Example 85, 4-(2-Methoxy-phenyl)-3-(2-phenyl-oxazol-4-ylmethoxy)-5-thiophen-2-yl-4H-[1,2,4]triazole]
EC50: > 10 µM
